Laboratory results published in patent US20230381215A1, “NOVEL COMBINATION TREATMENT FOR ACUTE MYELOID LEUKEMIA (AML)” (Hoffmann-La Roche Inc., priority 2013, published 2023).

Protocol: Female SCID beige mice (10/group), obtained from Charles River Laboratories (Wilmington, DE) were used when they were approximately 8-12 weeks old and weighed approximately 20-25 grams. The health of the mice was assessed daily by gross observation and analyses of blood samples taken from sentinel animals housed on shared shelf racks. All animals were allowed to acclimate and recover from any shipping-related stress for a minimum of 72 hours prior to experimental use. Autoclaved water and irradiated food (5058-ms Pico Lab mouse chow, Purina Mills, Richmond, IN) were provided ad libitum, and the animals were maintained on a 12 hour light and dark cycle. Cages, bedding and water bottles were autoclaved before use and changed weekly. All animal experiments were conducted in accordance with the Guide for the Care and Use of Laboratory Animals, local regulations, and protocols approved by the Roche Animal Care and Use Committee in an AAALAC accredited facility.
Treatment duration was 3 weeks.
For increased life span (ILS) assessment, animal body weights were measured two to three times per week, and animals were monitored daily for any clinical signs of toxicity or excessive tumor burden (i.e. hind limb paralysis or morbidity). In addition, progression of disease was monitored by in vivo bioluminescent imaging (BLI) using IVIS® Spectrum system. For each BLI session, mice received 100 mg/kg D-luciferin (Caliper Life Sciences/Perkin-Elmer) via ip injections and were imaged at 20 min post luciferin injection at either a 5 s or a 10 s exposure time. Images were captured by the IVIS® Spectrum system and data were collected and analyzed with Living Image 4.2.0 software (Caliper Life Sciences, Hopkinton, MA). Total photon fluxes (ph/s) representing luciferase activity within each fixed region of interest (ROI) covering whole tumors of individual mice were determined. The actual images of mice are not disclosed herein.
Weight loss was graphically represented as percent change in mean group body weight, using the formula: ((W−W0)/W0)×100, where ‘W’ represents mean body weight of the treated group at a particular day, and ‘W0’ represents mean body weight of the same treated group at initiation of treatment.

[1] = compound I-B 437 mg/kg q7d iv, 10/group

4-{[(2R,3S,4R,5S)-3-(3-Chloro-2-fluoro-phenyl)-4-(4-chloro-2-fluoro-phenyl)-4-cyano-5-(2,2-dimethyl-propyl)-pyrrolidine-2-carbonyl]-amino}-3-methoxy-benzoic acid 1-mPEG-carbonyloxy-ethyl ester (mPEG, average MW, 2200) [compound I-B]
% Change in Body Weight at Day 17 (compound I-B 437 mg/kg q7d iv): −2.8% | # of animals ≥20% body weight loss [1]: 0 | Mortality [1]: 1 | deaths after dosing (directly after iv dosing, undetermined cause): sporadic deaths directly after iv dosing
